For three substances, basal BRET and increase of BRET upon activation (% of basal net BRET) (% of basal net BRET) results are on record in patent US20190353647A1, “NOVEL REAL-TIME MULTIPLEXED, MULTI-COLOR BIOLUMINESCENCE RESONANCE ENERGY TRANSFER ASSAY, APPARATUS, AND USES THEREOF” (Universite de Bordeaux, priority 2016, published 2019).

Several values for one entry are separate records, joined by “and”; a condition that tells them apart may be missing. Equal values may be shown once.

Assay [1] concerns the target Luc-TRPV3 (human) (UniProt Q8NET8). The assay is described as follows: three-color spectral BRET, mixed population of HEK293T cells, purple coelenterazine. In general terms: Bioluminescence resonance energy transfer reports proximity on the nanometre scale.
For assay [2], the target named is TRPV4-Luc (human) (UniProt Q9HBA0). The assay is described as above.
Another assay addresses TRPV-Luc. Kind of assay: BRET in live HEK293T cells, agonist activation.
In another assay the target is TRPV1-Luc (human) (UniProt Q8NER1). The assay is described as follows: BRET in live HEK293T cells, saturating YFP-CaM expression, no agonist.
Assay [3] concerns the target Luc-TRPV3 (human) (UniProt Q8NET8). The description is as above.
The target in assay [4] is TRPV4-Luc (human) (UniProt Q9HBA0). The description is as above.

In turn, “aquamarine-CaM (from UniProt P0DP23 2-149)” came in with a basal BRET in the assay with Luc-TRPV3 (human) [1] of 0.027 BRET ratio.
“LSSmOrange-CaM (from UniProt P0DP23 1-149)” displayed a basal BRET in the assay with TRPV4-Luc (human) [2] of 0.017 BRET ratio.
YFP-CaM (from UniProt P0DP23 2-149): the increase of BRET upon activation (% of basal net BRET) (% of basal net BRET) with TRPV-Luc is 65 and 115. Moreover, the basal BRET in the assay with TRPV1-Luc (human) came out at 0.202 BRET ratio; in the assay with Luc-TRPV3 (human) [3] it was 0.221 BRET ratio; with TRPV4-Luc (human) [4], 0.275 BRET ratio.
